Paper PMC3662788, “The Catalytic Roles of P185 and T188 and Substrate-Binding Loop Flexibility in 3α-Hydroxysteroid Dehydrogenase/Carbonyl Reductase from Comamonas testosteroni” (PLoS ONE, 2013)

Substrate: NC(=O)c1ccc[n+]([C@@H]2O[C@H](COP(=O)([O-])OP(=O)(O)OC[C@H]3O[C@@H](n4cnc5c(N)ncnc54)[C@H](O)[C@@H]3O)[C@@H](O)[C@H]2O)c1
Experiment: purified protein, by the assay type
Conditions: other: P185G, 0.1 M Caps pH 10.5, 25°C

B1: P185G mutant 3α-HSD/CR (Comamonas testosteroni; P185G) (protein)
chain: MSIIVISGCATGIGAATRKVLEAAGHQIVGIDIRDAEVIADLSTAEGRKQAIADVLAKCSKGMDGLVLCAGLGPQTKVLGNVVSVNYFGATELMDAFLPALKKGHQPAAVVISSVASAHLAFDKNPLALALEAGEEAKARAIVEHAGEQGGNLAYAGSKNALTVAVRKRAAAWGEAGVRLNTIAGGATETPLLQAGLQDPRYGESIAKFVPPMGRRAEPSEMASVIAFLMSPAASYVHGAQIVIDGGIDAVMRPTQF
Km: 211 ± 66 µM
